# According to ChEMBL document CHEMBL1132398, “Identification of (-)-cis-6-acetyl-4S-(3-chloro-4-fluoro-benzoylamino)- 3,4-dihydro-2,2-dimethyl-2H-benzo[b]pyran-3S-ol as a potential antimigraine agent” (Bioorg Med Chem Lett, 1999):
# Key:
# Mus musculus [1] = experiment: In vivo percent increase in seizure threshold in mouse MEST model 4 hours following 10 mg/kg p.o.; conditions: at 10 mg/kg
# Mus musculus [2] = experiment: In vivo percent increase in seizure threshold in mouse MEST model 1 hour following 10 mg/kg p.o.; conditions: at 10 mg/kg
smiles,measurement,setting,value
CC(=O)c1ccc2c(c1)[C@H](NC(=O)c1cccc(Cl)c1Cl)[C@@H](O)C(C)(C)O2,Increase,Mus musculus [1],1070%
same,Increase,Mus musculus [2],146%
CC(=O)c1ccc2c(c1)[C@H](NC(=O)c1cccc(Cl)c1Cl)[C@H](O)C(C)(C)O2,Increase,Mus musculus [1],768%
same,Increase,Mus musculus [2],116%
CC(=O)c1ccc2c(c1)[C@H](NC(=O)c1ccccc1Cl)[C@H](O)C(C)(C)O2,Increase,Mus musculus [1],424%
same,Increase,Mus musculus [2],8.4%
CC(=O)c1ccc2c(c1)[C@H](NC(=O)c1ccccc1Cl)[C@@H](O)C(C)(C)O2,Increase,Mus musculus [1],478%
